Reference: article PMC4365786 (Chemistry & biology, 2015)

System: MDA-MB-231 cells
Experiment: Wound healing cell migration assay
Type: cell-based
Details: MDA-MB-231 monolayer scratch; UF010 at 1 μM

SMILES: O=C(CCCCCCC(=O)Nc1ccccc1)NO [SAHA, vorinostat, reference compound]
- effect on cell migration: did not significantly affect
